For data set [1] the following is noted: in toluene, O2 saturated solution (3 hours of bubbling with oxygen).
The conditions of data set [2]: isothermal thermogravimetric analysis at 60 °C during 3 h.
Data set [3] in a line: Fluorescence quantum yield. To be noted: in toluene, O2 saturated solution, room temperature.
The conditions of data set [4]: aqueous micellar system (Tween80/DMSO/water (2/2/96, v/v/v)), listed as Pt(II)-chlorin 8.

Where two headings read alike, the source gives them in different places.

As to “platinum (II) dimethyl 4,5,6,7-tetrahydropyrazolo[1,5-α]pyridine-2,3-dicarboxylate-fused chlorin [Chlorin 7b]”, the φP in data set [1] came to 0.0002. For the same substance, the mass loss result in data set [2] is on record as “less than 1%”. In addition, in data set [3] (listed as chlorin 7b), the φF is 0.0001.
On to “platinum (II) 2,3-dihydroxymethyl-4,5,6,7-tetrahydropyrazolo[1,5-α]pyridine-fused chlorin [Chlorin 8]”, for which the Phosporescence lifetime is 30.9 µs in data set [4] (deaerated solution) and 11.3 µs in data set [4] (presence of O2). Moreover, in data set [2], the mass loss entry was “less than 1%”. The substance also came in with a φF in data set [3] of 0.0001.
